Assay results: patent publication US9598423B2 (dated 2017)

By UniProt entry, the sequences of proteins in these tests, tags left out. Where a name states a change or a piece, a line headed by the entry shows the natural chain unless it says otherwise.
UniProt P48730: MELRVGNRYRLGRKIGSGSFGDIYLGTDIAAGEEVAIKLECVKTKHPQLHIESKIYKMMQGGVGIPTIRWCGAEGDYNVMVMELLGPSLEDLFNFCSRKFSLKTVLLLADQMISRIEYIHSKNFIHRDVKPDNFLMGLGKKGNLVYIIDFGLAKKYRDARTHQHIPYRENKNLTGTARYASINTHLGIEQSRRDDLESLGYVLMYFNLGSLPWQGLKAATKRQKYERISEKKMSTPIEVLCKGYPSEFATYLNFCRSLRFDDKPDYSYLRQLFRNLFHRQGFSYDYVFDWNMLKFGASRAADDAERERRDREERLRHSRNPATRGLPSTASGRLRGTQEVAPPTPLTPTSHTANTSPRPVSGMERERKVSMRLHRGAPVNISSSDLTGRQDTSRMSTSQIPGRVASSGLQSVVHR
UniProt P49674: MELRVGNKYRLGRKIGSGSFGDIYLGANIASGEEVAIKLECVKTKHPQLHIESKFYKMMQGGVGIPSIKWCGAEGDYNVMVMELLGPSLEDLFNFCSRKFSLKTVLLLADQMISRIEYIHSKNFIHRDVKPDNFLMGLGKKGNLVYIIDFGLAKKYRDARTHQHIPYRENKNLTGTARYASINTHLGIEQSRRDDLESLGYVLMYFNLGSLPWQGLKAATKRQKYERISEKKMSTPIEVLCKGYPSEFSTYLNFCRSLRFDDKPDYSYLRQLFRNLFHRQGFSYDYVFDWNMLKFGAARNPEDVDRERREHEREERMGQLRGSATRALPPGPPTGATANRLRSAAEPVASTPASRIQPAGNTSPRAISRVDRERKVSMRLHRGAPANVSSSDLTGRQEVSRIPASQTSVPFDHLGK

Columns and labels:
CK1δ = CK1δ (Homo sapiens (Human), UniProt P48730); assay: CK1δ kinase assay (Caliper LABCHIP electrophoretic separation of fluoresceinated peptide substrate and product); settings: CK1δ (IC50, nM), 200 pM CK1δ, 50 μM ATP, 1.5 μM peptide substrate, 22 hours at room temperature
CK1ε = CK1ε (Homo sapiens (Human), UniProt P49674); assay: CK1ε kinase assay (Caliper LABCHIP electrophoretic separation of fluoresceinated peptide substrate and product); settings: CK1ε (IC50, nM), 200 pM CK1ε, 50 μM ATP, 1.5 μM peptide substrate, 22 hours at room temperature

Compound | IC50 (CK1δ) [nM] | IC50 (CK1ε) [nM]
N#Cc1ccc(NC(=O)N2Cc3c(C(N)=O)c(-c4cccc(F)c4)nn3C(CF)C2)cc1 (single isomer, unassigned) [Compound A76, N^5-(4-Cyanophenyl)-7-(fluoromethyl)-2-(3-fluorophenyl)-6,7-dihydropyrazolo[1,5-a]pyrazine-3,5(4H)-dicarboxamide] | 10 to 100 | 
N#Cc1ccc(NC(=O)N2Cc3c(C(N)=O)c(-c4ccc(F)c(Cl)c4)nn3C(C(F)(F)F)C2)cc1 (single isomer, unassigned) [Compound A84, 2-(3-Chloro-4-fluorophenyl)-N^5-(4-cyanophenyl)-7-(trifluoromethyl)-6,7-dihydropyrazolo[1,5-a]pyrazine-3,5(4H)-dicarboxamide] |  | 10 to 100
CC(C)(C)[C@@H]1CN(C(=O)Nc2ccc(C#N)cc2)Cc2c(C(N)=O)c(-c3ccc(F)c(Cl)c3)nn21 [Compound A81, 7-(tert-Butyl)-2-(3-chloro-4-fluorophenyl)-N-(4-cyanophenyl)-6,7-dihydropyrazolo[1,5-a]pyrazine-3,5(4H)-dicarboxamide] |  | 10 to 100
